From patent publication US7273716B2 (priority 2003, dated 2007) come the findings set out here.

Common to all, as to experiment: cell-based or functional assay
The target of experiment [1] is GS-7340 ester hydrolase purified from human peripheral blood mononuclear cells, identified as human protective protein for beta-galactosidase: Cathepsin A (human) (UniProt P10619).
For experiment [2], the target named is human leukocyte elastase (human) (UniProt P08246).
Experiment [3] addresses porcine liver carboxylesterase (porcine) (UniProt Q29550).
Experiment [4] concerns the target porcine liver carboxylesterase (porcine, UniProt Q29550 19-566).

For MeOSuc-Ala-Ala-Pro-Val-CMK (peptide), the IC50 (µM), inhibition of enzymatic production of [14C] Metabolite X from Compound K in experiment [1] is 100 µM; in experiment [2] it was 4 µM; in experiment [3], over 1000 µM.
On to MeOSuc-Ala-Ala-Pro-Ala-CMK (peptide), for which the IC50 (µM), inhibition of enzymatic production of [14C] Metabolite X from Compound K in experiment [2] is 60 µM; in experiment [3], over 1000 µM.
Regarding FA (N-terminal biotin; C-terminal fluoromethyl ketone (FMK)) [Biotin-Phe-Ala-FMK], the “IC50 (µM), inhibition of enzymatic production of [14C] Metabolite X from Compound K” value in experiment [4] is over 1000 µM.
